The test relates to A549-NLR cells with anti-CD3 stimulated PBMC. As to the kind of experiment: Primary human T cell killing assay. To be noted: IL-2 10 ng/mL, positive control. In kind it is cell-based. The protocol: In this study, A549-NLR cells were cultured alone or with PBMC's isolated from blood of three healthy donors in the presence of anti-CD3 stimulation. Cells were treated with test compound at three concentrations (0.3 μM, 1 μM and 3 μM) and IL-2 (10 ng/mL). Controls included A549-NLR cells cultured alone with each compound titration, IL-2 and vehicle. A549 growth was quantified by enumerating NucLight+ cells and A549 apoptosis by Caspase-3/7+ expression (colocalised to NucLight signal) every 2 hours for 96 hours.
All test conditions were applied to A549-NLR cells in the presence of stimulated PBMC. The number of A549 cells was tracked by IncuCyte live cell imaging over 96 hrs. The number of A549 cells at each time-point was counted and expressed as a percentage of the starting number (on a per well basis). At each time-point, the frequency of target cell apoptosis was quantified. Mean of technical triplicates are shown, except for donor 1 at 3 μM, which was analysed as duplicates due to out of focus IncuCyte images.

The values that follow come from US20250388542A1, “ANALOGUES OF PENTAMIDINE AND USES THEREFOR” (Auransa Inc., priority 2018, published 2025).

“IL-2: positive control (IL-2, 10 ng/mL) in the T cell killing assay”: the “immune-mediated tumor cell killing” value is “robust enhancement of immune-mediated tumor cell killing”.
